This note sets out measurements from patent US20060094649A1, “Hla-a1,-a2,-a3,-a24,-b7, and-b44 tumor associated antigen peptides and compositions” (priority 2002, published 2006).

The experiment deals with HLA-B44 supertype molecules. Put plainly: HLA-B44 supertype cross-binding. Also on record: species or system human. The following applies: number of the six B44 supertype alleles bound.

Consider `CSCC[C@H](N)C(=O)N[C@@H](CCC(=O)O)C(=O)N[C@@H](CC(C)C)C(=O)N[C@@H](C)C(=O)N[C@@H](C)C(=O)N[C@@H](CC(C)C)C(=O)N[C@@H](CS)C(=O)N[C@@H](CCCNC(=N)N)C(=O)N[C@@H](Cc1c[nH]c2ccccc12)C(=O)NCC(=O)O` [compound 472], for which the Degeneracy was found to be 4.

In turn, `CC[C@H](C)[C@H](NC(=O)[C@H](CC(C)C)NC(=O)[C@@H](NC(=O)[C@H](Cc1ccc(O)cc1)NC(=O)CNC(=O)[C@H](CCC(N)=O)NC(=O)[C@@H](NC(=O)[C@H](CCC(=O)O)NC(=O)[C@@H](N)CCC(N)=O)C(C)C)C(C)C)C(=O)N[C@@H](C)C(=O)O` [compound 473] had a Degeneracy of 4.

With `CC(C)C[C@H](NC(=O)[C@@H](NC(=O)[C@H](C)NC(=O)[C@H](CC(C)C)NC(=O)[C@H](C)NC(=O)[C@H](Cc1ccc(O)cc1)NC(=O)[C@H](CC(N)=O)NC(=O)[C@H](CC(=O)O)NC(=O)[C@H](CCC(=O)O)NC(=O)[C@@H](N)Cc1ccccc1)C(C)C)C(=O)O` [compound 474], the Degeneracy is listed as 4.

Consider `CC(C)C[C@H](NC(=O)[C@H](CO)NC(=O)[C@H](CCCNC(=N)N)NC(=O)[C@H](CC(C)C)NC(=O)[C@H](CCC(N)=O)NC(=O)[C@H](CC(C)C)NC(=O)[C@H](CCC(=O)O)NC(=O)[C@@H](N)CCCNC(=N)N)C(=O)O` [compound 475], for which the Degeneracy is on record as 4.

As for `CC[C@H](C)[C@H](NC(=O)[C@H](CCC(=O)O)NC(=O)[C@@H](N)[C@@H](C)O)C(=O)N[C@@H](CC(C)C)C(=O)N[C@@H](CCCCN)C(=O)NCC(=O)NCC(=O)N[C@H](C(=O)N[C@@H](CC(C)C)C(=O)O)C(C)C` [compound 476], the Degeneracy is listed as 4.

`CC[C@H](C)[C@H](NC(=O)[C@H](CC(C)C)NC(=O)[C@@H](NC(=O)CNC(=O)CNC(=O)[C@H](CCCCN)NC(=O)[C@H](CC(C)C)NC(=O)[C@@H](NC(=O)[C@H](CCC(=O)O)NC(=O)[C@@H](N)[C@@H](C)O)[C@@H](C)CC)C(C)C)C(=O)O` [compound 477] showed a Degeneracy of 4.

As to `CC(C)C[C@H](NC(=O)[C@H](CO)NC(=O)[C@H](CCC(N)=O)NC(=O)[C@H](CS)NC(=O)[C@H](CC(=O)O)NC(=O)[C@H](CCC(=O)O)NC(=O)[C@H](CO)NC(=O)[C@H](CO)NC(=O)[C@H](CCC(=O)O)NC(=O)CN)C(=O)O` [compound 478], the Degeneracy came to 4.

Take `CC(C)C[C@H](NC(=O)[C@H](CO)NC(=O)[C@H](CCC(N)=O)NC(=O)[C@H](CS)NC(=O)[C@H](CC(=O)O)NC(=O)[C@H](CCC(=O)O)NC(=O)[C@@H](N)CO)C(=O)N[C@H](C(=O)N[C@@H](CCCNC(=N)N)C(=O)N[C@H](C(=O)N[C@H](C(=O)O)C(C)C)[C@@H](C)O)[C@@H](C)O` [compound 479]: the Degeneracy is reported as 4.

In turn, `CC(C)[C@H](NC(=O)[C@H](CS)NC(=O)[C@H](CO)NC(=O)[C@H](C)NC(=O)CNC(=O)[C@H](Cc1ccccc1)NC(=O)[C@@H](NC(=O)[C@H](Cc1ccc(O)cc1)NC(=O)[C@H](CCCNC(=N)N)NC(=O)CNC(=O)[C@H](CCC(=O)O)NC(=O)[C@@H]1CCCN1)[C@@H](C)O)C(=O)O` [compound 480] yielded a Degeneracy of 4.

`CC(C)[C@H](NC(=O)[C@H](C)NC(=O)[C@H](CCCNC(=N)N)NC(=O)[C@@H](NC(=O)[C@H](CCC(=O)O)NC(=O)[C@@H](N)CCCNC(=N)N)C(C)C)C(=O)N[C@H](C(=O)N[C@@H](CO)C(=O)N[C@@H](C)C(=O)O)[C@@H](C)O` [compound 481] showed a Degeneracy of 4.

The molecule `CC[C@H](C)[C@H](NC(=O)[C@H](CCC(=O)O)NC(=O)[C@@H](N)CCC(=O)O)C(=O)N[C@H](C(=O)NCC(=O)N[C@@H](Cc1ccc(O)cc1)C(=O)N[C@@H](CC(C)C)C(=O)N[C@@H](Cc1ccc(O)cc1)C(=O)O)[C@@H](C)O` [compound 483] had a Degeneracy of 4.

Take `CC[C@H](C)[C@H](NC(=O)[C@H](Cc1ccc(O)cc1)NC(=O)[C@H](CC(C)C)NC(=O)[C@H](Cc1ccc(O)cc1)NC(=O)CNC(=O)[C@@H](NC(=O)[C@@H](NC(=O)[C@H](CCC(=O)O)NC(=O)[C@@H](N)CCC(=O)O)[C@@H](C)CC)[C@@H](C)O)C(=O)N[C@@H](CO)C(=O)N[C@@H](C)C(=O)N[C@@H](Cc1c[nH]c2ccccc12)C(=O)O` [compound 485]: the Degeneracy was 4.

On to `CC(C)C[C@H](NC(=O)[C@@H](NC(=O)[C@H](CCCNC(=N)N)NC(=O)[C@H](CS)NC(=O)[C@H](CCC(=O)O)NC(=O)[C@H](CCC(=O)O)NC(=O)[C@@H](NC(=O)[C@H](CS)NC(=O)[C@H](CCC(=O)O)NC(=O)[C@@H](N)CCC(N)=O)C(C)C)C(C)C)C(=O)O` [compound 486], for which the Degeneracy stood at 4.

`CC(C)C[C@H](NC(=O)CNC(=O)[C@H](CCC(N)=O)NC(=O)[C@H](CC(C)C)NC(=O)[C@@H](NC(=O)[C@H](CCCNC(=N)N)NC(=O)[C@H](CS)NC(=O)[C@H](CCC(=O)O)NC(=O)[C@H](CCC(=O)O)NC(=O)[C@@H](N)C(C)C)C(C)C)C(=O)O` [compound 487] displayed a Degeneracy of 4.

The molecule `CC[C@H](C)[C@H](NC(=O)[C@H](CCC(=O)O)NC(=O)[C@@H](N)CCCCN)C(=O)N[C@@H](CC(C)C)C(=O)N[C@@H](CC(=O)O)C(=O)N[C@@H](CCC(=O)O)C(=O)N[C@@H](C)C(=O)N[C@@H](Cc1ccc(O)cc1)C(=O)N[C@H](C(=O)O)C(C)C` [compound 489] yielded a Degeneracy of 4.

The molecule `CC[C@H](C)[C@H](NC(=O)[C@H](CCC(=O)O)NC(=O)[C@@H](N)CCCCN)C(=O)N[C@@H](CC(C)C)C(=O)N[C@@H](CC(=O)O)C(=O)N[C@@H](CCC(=O)O)C(=O)N[C@@H](C)C(=O)N[C@@H](Cc1ccc(O)cc1)C(=O)N[C@H](C(=O)N[C@@H](CCSC)C(=O)N[C@@H](C)C(=O)O)C(C)C` [compound 490] came in with a Degeneracy of 4.

On to `CSCC[C@H](NC(=O)[C@@H](NC(=O)[C@H](Cc1ccc(O)cc1)NC(=O)[C@H](C)NC(=O)[C@H](CCC(=O)O)NC(=O)[C@@H](N)CC(=O)O)C(C)C)C(=O)N[C@@H](C)C(=O)NCC(=O)N[C@H](C(=O)NCC(=O)O)C(C)C` [compound 491], for which the Degeneracy is on record as 4.

For the molecule `CC[C@H](C)[C@H](NC(=O)[C@@H]1CCCN1C(=O)[C@@H](NC(=O)[C@H](CCCCN)NC(=O)CNC(=O)CNC(=O)[C@H](CC(=O)O)NC(=O)[C@H](C)NC(=O)[C@H](Cc1c[nH]cn1)NC(=O)[C@H](Cc1ccc(O)cc1)NC(=O)[C@H](CCC(=O)O)NC(=O)[C@@H](N)[C@@H](C)O)C(C)C)C(=O)O` [compound 492], the Degeneracy is 4.

For `CC[C@H](C)[C@H](NC(=O)[C@@H](NC(=O)[C@H](CS)NC(=O)[C@@H](NC(=O)[C@@H]1CCCN1C(=O)[C@@H]1CCCN1C(=O)[C@H](CCC(N)=O)NC(=O)[C@@H]1CCCN1C(=O)[C@H](CC(C)C)NC(=O)[C@H](CCCNC(=N)N)NC(=O)[C@H](CCC(=O)O)NC(=O)CN)[C@@H](C)CC)[C@@H](C)O)C(=O)O` [compound 493], the Degeneracy was determined as 4.

As to `CC(C)C[C@H](NC(=O)[C@H](Cc1ccc(O)cc1)NC(=O)[C@H](CCC(=O)O)NC(=O)[C@@H](N)CCC(=O)O)C(=O)N[C@H](C(=O)N1CCC[C@H]1C(=O)N[C@@H](CCC(N)=O)C(=O)N[C@@H](CCC(N)=O)C(=O)NCC(=O)O)C(C)C` [compound 495], the Degeneracy is 4.

With `CC(C)C[C@H](NC(=O)[C@H](Cc1ccc(O)cc1)NC(=O)[C@H](CCC(=O)O)NC(=O)[C@@H](N)CCC(=O)O)C(=O)N[C@H](C(=O)N1CCC[C@H]1C(=O)N[C@@H](CCC(N)=O)C(=O)N[C@@H](CCC(N)=O)C(=O)NCC(=O)N[C@@H](Cc1ccccc1)C(=O)O)C(C)C` [compound 496], the Degeneracy came out at 4.
